Target: Neuronal acetylcholine receptor subunit alpha-3 (Rattus norvegicus, UniProt P04757)

Chains of the proteins cited; added tags and fusions are not shown.
UniProt P04757, whole entry: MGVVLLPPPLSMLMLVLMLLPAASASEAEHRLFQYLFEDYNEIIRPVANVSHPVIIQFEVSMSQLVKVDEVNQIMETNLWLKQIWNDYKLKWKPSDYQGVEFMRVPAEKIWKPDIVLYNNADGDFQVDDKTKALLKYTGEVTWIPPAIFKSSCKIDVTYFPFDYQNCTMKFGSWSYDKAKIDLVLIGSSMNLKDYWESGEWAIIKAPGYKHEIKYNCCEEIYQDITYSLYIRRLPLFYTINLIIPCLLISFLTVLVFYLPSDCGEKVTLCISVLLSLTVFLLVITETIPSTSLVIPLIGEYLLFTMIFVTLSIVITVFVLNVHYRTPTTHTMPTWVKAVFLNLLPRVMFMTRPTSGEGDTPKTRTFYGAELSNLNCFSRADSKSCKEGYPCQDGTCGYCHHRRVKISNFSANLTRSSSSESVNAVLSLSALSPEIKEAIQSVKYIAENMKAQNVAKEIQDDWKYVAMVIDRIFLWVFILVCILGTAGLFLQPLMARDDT

Ki: > 10 µM
SMILES: CNC1(C)C2CCC(C2)C1(C)C (stereo unspecified) [Methyl-(2,3,3-trimethyl-bicyclo[2.2.1]hept-2-yl)-amine(Mecamylamine)]

Reference: BindingDB's records for doi:10.1124/jpet.104.066787 (Georgetown University, 2004)
